Molecular target: Peptidyl-prolyl cis-trans isomerase FKBP1A (Homo sapiens, UniProt P62942)
Experiment: Inhibitory selectivity for human FK506 binding protein 12 and human mixed lymphocyte response(MLR)
Format: functional

Amino acid sequences for entries named in this document (tags omitted).
UniProt P62942, whole entry: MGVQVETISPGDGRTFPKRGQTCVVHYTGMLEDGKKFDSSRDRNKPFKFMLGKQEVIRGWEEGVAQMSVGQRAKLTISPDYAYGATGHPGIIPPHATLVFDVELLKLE

CC[C@@H]1/C=C(\C)C[C@H](C)C[C@H](OC)[C@H]2O[C@@](O)(C(=O)C(=O)N3CCCCC3C(=O)O[C@H](/C(C)=C/C3CC[C@@H](OCC(=O)OCc4ccccc4)[C@H](OC)C3)[C@H](C)[C@@H](O)CC1=O)[C@H](C)C[C@@H]2OC (some centres not stated) was tested, and the Selectivity was 8.9.
Work on CC[C@@H]1/C=C(\C)C[C@H](C)C[C@H](OC)[C@H]2O[C@@](O)(C(=O)C(=O)N3CCCC[C@H]3C(=O)O[C@H](/C(C)=C/C3CC[C@@H](OCC(=O)Nc4ccc(C(F)(F)F)cc4)[C@H](OC)C3)[C@H](C)[C@@H](O)CC1=O)[C@H](C)C[C@@H]2OC (some centres not stated) yielded a Selectivity of 2700.
CC[C@@H]1/C=C(\C)C[C@H](C)C[C@H](OC)[C@H]2O[C@@](O)(C(=O)C(=O)N3CCCC[C@H]3C(=O)O[C@H](/C(C)=C/C3CC[C@@H](OCC(=O)Nc4ccc(N5CCOCC5)cc4)[C@H](OC)C3)[C@H](C)[C@@H](O)CC1=O)[C@H](C)C[C@@H]2OC (some centres not stated) gave a Selectivity of 33.
CC[C@@H]1/C=C(\C)C[C@H](C)C[C@H](OC)[C@H]2O[C@@](O)(C(=O)C(=O)N3CCCC[C@H]3C(=O)O[C@H](/C(C)=C/C3CC[C@@H](OCC(=O)Nc4ccc(OC)cc4)[C@H](OC)C3)[C@H](C)[C@@H](O)CC1=O)[C@H](C)C[C@@H]2OC (some centres not stated) showed a Selectivity of 1300.
CC[C@@H]1/C=C(\C)C[C@H](C)C[C@H](OC)[C@H]2O[C@@](O)(C(=O)C(=O)N3CCCC[C@H]3C(=O)O[C@H](/C(C)=C/C3CC[C@@H](OCC(=O)NCc4ccccc4)[C@H](OC)C3)[C@H](C)[C@@H](O)CC1=O)[C@H](C)C[C@@H]2OC (some centres not stated) was tested, and the Selectivity was 61.
CC[C@@H]1/C=C(\C)C[C@H](C)C[C@H](OC)[C@H]2O[C@@](O)(C(=O)C(=O)N3CCCC[C@H]3C(=O)O[C@H](/C(C)=C/C3CC[C@@H](OCC(=O)NC4CCCCC4)[C@H](OC)C3)[C@H](C)[C@@H](O)CC1=O)[C@H](C)C[C@@H]2OC (some centres not stated) gave a Selectivity of 4.3.
CC[C@@H]1/C=C(\C)C[C@H](C)C[C@H](OC)[C@H]2O[C@@](O)(C(=O)C(=O)N3CCCC[C@H]3C(=O)O[C@H](/C(C)=C/C3CC[C@@H](OCC(=O)Nc4cccnc4)[C@H](OC)C3)[C@H](C)[C@@H](O)CC1=O)[C@H](C)C[C@@H]2OC (some centres not stated) showed a Selectivity of 33.
Molecule CC[C@@H]1/C=C(\C)C[C@H](C)C[C@H](OC)[C@H]2O[C@@](O)(C(=O)C(=O)N3CCCC[C@H]3C(=O)O[C@H](/C(C)=C/C3CC[C@@H](OCC(=O)Nc4ccc(O)cc4)[C@H](OC)C3)[C@H](C)[C@@H](O)CC1=O)[C@H](C)C[C@@H]2OC (some centres not stated) has a Selectivity of 110.
CC[C@@H]1/C=C(\C)C[C@H](C)C[C@H](OC)[C@H]2O[C@@](O)(C(=O)C(=O)N3CCCC[C@H]3C(=O)O[C@H](/C(C)=C/C3CC[C@@H](OCC(=O)Nc4ccncc4)[C@H](OC)C3)[C@H](C)[C@@H](O)CC1=O)[C@H](C)C[C@@H]2OC (some centres not stated) showed a Selectivity of 20.
CCOC(=O)CO[C@@H]1CCC(/C=C(\C)[C@H]2OC(=O)[C@@H]3CCCCN3C(=O)C(=O)[C@]3(O)O[C@H]([C@@H](OC)C[C@@H](C)C/C(C)=C/[C@@H](CC)C(=O)C[C@H](O)[C@H]2C)[C@@H](OC)C[C@H]3C)C[C@H]1OC (some centres not stated) gave a Selectivity of 10.
CC[C@@H]1/C=C(\C)C[C@H](C)C[C@H](OC)[C@H]2O[C@@](O)(C(=O)C(=O)N3CCCC[C@H]3C(=O)O[C@H](/C(C)=C/C3CC[C@@H](OCC(=O)Nc4cccc(F)c4)[C@H](OC)C3)[C@H](C)[C@@H](O)CC1=O)[C@H](C)C[C@@H]2OC (some centres not stated) gave a Selectivity of 2500.
CC[C@@H]1/C=C(\C)C[C@H](C)C[C@H](OC)[C@H]2O[C@@](O)(C(=O)C(=O)N3CCCC[C@H]3C(=O)O[C@H](/C(C)=C/C3CC[C@@H](OCC(=O)Nc4ccc(Cl)c(Cl)c4)[C@H](OC)C3)[C@H](C)[C@@H](O)CC1=O)[C@H](C)C[C@@H]2OC (some centres not stated) gave a Selectivity of 910.
Work on CC[C@@H]1/C=C(\C)C[C@H](C)C[C@H](OC)[C@H]2O[C@@](O)(C(=O)C(=O)N3CCCC[C@H]3C(=O)O[C@H](/C(C)=C/C3CC[C@@H](OCC(=O)NCCc4ccccc4)[C@H](OC)C3)[C@H](C)[C@@H](O)CC1=O)[C@H](C)C[C@@H]2OC (some centres not stated) yielded a Selectivity of 38.
CC[C@@H]1/C=C(\C)C[C@H](C)C[C@H](OC)[C@H]2O[C@@](O)(C(=O)C(=O)N3CCCC[C@H]3C(=O)O[C@H](/C(C)=C/C3CC[C@@H](OCC(=O)Nc4ccc(F)cc4)[C@H](OC)C3)[C@H](C)[C@@H](O)CC1=O)[C@H](C)C[C@@H]2OC (some centres not stated) was tested, and the Selectivity was 1500.
CC[C@@H]1/C=C(\C)C[C@H](C)C[C@H](OC)[C@H]2O[C@@](O)(C(=O)C(=O)N3CCCC[C@H]3C(=O)O[C@H](/C(C)=C/C3CC[C@@H](OCC(=O)N(C)Cc4ccccc4)[C@H](OC)C3)[C@H](C)[C@@H](O)CC1=O)[C@H](C)C[C@@H]2OC (some centres not stated) was tested, and the Selectivity was 62.
CC[C@@H]1/C=C(\C)C[C@H](C)C[C@H](OC)[C@H]2O[C@@](O)(C(=O)C(=O)N3CCCC[C@H]3C(=O)O[C@H](/C(C)=C/C3CC[C@@H](OCC(N)=O)[C@H](OC)C3)[C@H](C)[C@@H](O)CC1=O)[C@H](C)C[C@@H]2OC (some centres not stated) showed a Selectivity of 4.6.
For CC[C@@H]1/C=C(\C)C[C@H](C)C[C@H](OC)[C@H]2O[C@@](O)(C(=O)C(=O)N3CCCC[C@H]3C(=O)O[C@H](/C(C)=C/C3CC[C@@H](OCC(=O)Nc4cccc(C(F)(F)F)c4)[C@H](OC)C3)[C@H](C)[C@@H](O)CC1=O)[C@H](C)C[C@@H]2OC (some centres not stated), the Selectivity was 3400.

From ChEMBL document CHEMBL1131619, “32-Ascomycinyloxyacetic acid derived immunosuppressants. Independence of immunophilin binding and immunosuppressive potency” (J Med Chem, 1998)
